## AlphaSeq binding of Ab-14 light chain variants to a spike HR2 peptide

Target peptide (SARS-CoV-2 spike, HR2 region): PDVDLGDISGINAS

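Phage display of a naive human antibody library on the peptide gave the parent. Designed CDR sequences, proposed from the first random library and measured here. Several design methods are mixed in this list. The assay is AlphaSeq: two haploid yeast populations carry antibody and antigen on their surface. The frequency of each diploid, read from paired DNA barcodes, reflects how well the two displayed proteins bind. Read counts were normalised to the haploid input and turned into Kd by a linear fit to BCL2-family pairs of known affinity, for each replicate. The assay was run in six technical replicates.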

Ab-14 is the parent antibody, in scFv form: VH, then the linker GGGGSGGGGSGGGGS, then VL. The heavy chain is unchanged in all variants.
VH: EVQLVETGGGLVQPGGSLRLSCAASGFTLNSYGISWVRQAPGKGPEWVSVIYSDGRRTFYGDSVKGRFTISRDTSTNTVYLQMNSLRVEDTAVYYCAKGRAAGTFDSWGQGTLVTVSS
VL: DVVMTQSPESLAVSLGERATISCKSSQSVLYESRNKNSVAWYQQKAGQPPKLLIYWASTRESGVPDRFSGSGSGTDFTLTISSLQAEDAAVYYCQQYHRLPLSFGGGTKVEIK

Variants are written as CDR1, CDR2 and CDR3 of the light chain (limits as in the source). Parent: KSSQSVLYESRNKNSVA, WASTRES, QQYHRLPLS. Variants here have more than six changes. The read-out is the apparent dissociation constant on a log10 scale (nM): the lower, the stronger. Where no diploid with the target was found in that replicate, the entry reads "nd": below detection, most likely a poor binder, though not proof of it. A sequence measured in both rounds can read differently, since the two assays cover different ranges. The authors' rule: three or more of the six replicates give a measured affinity, fewer mean a poor binder. Three control strains display no target. For all light chain designs, 4% of the pairings with them gave a signal, with a median of 2.64 and one signal in twenty below 1.59, so weak values seen in few replicates may be background.

With QLAVERGQEYKAGAAIA | GKTEKLH | QQYAMLPLS the result was 0.83, 0.79, 0.79, 0.51, 0.56, 0.67.
With KLYYDAAQRVQDAENIA | EKTESYQ | QQYHRLPLS the result was nd, nd, nd, 2.55, 4.05, 2.61.
With HIFPQENVYGKNNNNVA | DGSTQAW | QQYHRLPLS the result was 0.01, 0.01, 0.05, -0.19, -0.18, -0.10.
With MISDTGLHDSRLQNSVA | NNSTREA | QQYHRLPLS the result was 2.28, 2.15, 3.10, 2.38, 1.51, 2.76.
With KMQAGQGYESRNKNSVA | QGSKRES | QQYHRLPLS the result was 0.90, 0.65, 0.93, 0.67, 0.98, 0.25.
With SISNLGMVPSVWQNSIA | DVTIVEE | QQYSRLPLL the result was nd, nd, nd, nd, nd, nd.
With KCSQDYCYGDRNKNSVA | NASTREQ | QQYHRLPLS the result was 0.05, -0.16, -0.08, -0.19, -0.38, -0.29.
With KVSEFMRGLMMRKDSIA | DNNTRFN | QQYDRLPLS the result was nd, nd, nd, nd, nd, nd.
With MISQLYNMGQFAINSVA | QASLRCN | QQYDRLPLA the result was nd, 2.02, nd, 2.18, nd, nd.
With KIGQLTTYHSQVGNSIA | QTSTREE | QQYHRLPLS the result was 0.28, 0.17, 0.10, 0.12, 0.03, 0.28.
With HITMGMYVHGRHHSSIA | QAETRAK | QQYDRLPLM the result was 2.53, 2.00, nd, 2.56, 2.39, 1.96.
With IISGSMLMESRNKSSVA | NAETREY | QHYDRLPLS the result was nd, 5.38, nd, 2.92, 3.11, nd.
With KLSQQDEYQSRNKNQVA | NASTRYS | QQYHRLPLS the result was 0.44, 0.27, 0.09, 0.06, 0.11, 0.31.
With KLSQTHGMEMVNRNSVA | ELVTRMN | QQYNRLPLS the result was 0.29, 0.20, 0.16, 0.04, 0.04, 0.62.
With SVTSEMDQQQEQYNSVA | GVQKTAD | QQYGRLPLS the result was 1.22, 1.33, 0.89, 1.11, 1.27, 1.47.
With QLHAYTQGFWRAMQNIA | DISYRVT | QQYGRLPLS the result was 1.55, 2.03, 2.10, 0.83, 1.30, 2.15.
With KLSMSALMESRNKNSVA | ENSTRES | QHYHRLPLS the result was nd, nd, 3.43, nd, nd, nd.
With KFSVSKEMVNKEGESIA | GSHTIQE | QQYSRLPLA the result was nd, 1.87, nd, 1.22, nd, nd.
With MISQLYNMGQFAINSVA | QASQRCN | QQYDRLPLI the result was 1.51, 1.29, 1.63, 1.50, 1.39, 2.18.
With KFDMHIPYQGEQNASIA | GTTNRLT | QQYFKLPLS the result was 1.16, 0.95, 0.42, 0.63, 0.64, 0.68.
With QIALSTEEVGIQKNSIA | EETVRPA | QQYLRLPLH the result was 1.57, 1.55, 0.82, 1.88, 1.28, 1.86.
With TVSQVTGLLQHNTNSVA | DMNTRGS | QQYDRLPLS the result was 0.35, 0.57, 0.59, 0.41, 0.39, 0.65.
With KISQSWLMEPRNSNSVA | NASTRQM | QQYHRLPLS the result was 0.24, 0.12, 0.06, 0.05, -0.16, 0.26.
With QISQVMGLSMHGTNNVA | QMETREE | QQYDRLPLS the result was 1.09, 1.00, 0.92, 0.94, 0.81, 0.77.
With KASNSNLYESRNGNSVA | NASTRLH | QQYHRLPLS the result was 0.21, 0.22, 0.18, 0.17, 0.58, 0.64.
With MISSLYNMGQFAINSVA | QAQTRNE | QQYDRLPLM the result was 1.39, 1.71, nd, nd, 1.46, 1.97.
With KLEQSTLYEERMCNSVA | NASQRES | QQYHRLPLS the result was 0.36, 0.24, 0.51, -0.07, 0.09, 0.29.
With KLGMTLNTLYEKKNNVA | DLVTREN | QQYHRLPLS the result was 0.18, 0.40, 0.34, 0.86, 0.24, 0.42.
With KLQWSWLMQSRNKNSVA | HASMRES | QQYHRLPLS the result was 0.88, 1.01, 1.34, 1.29, 1.12, 1.29.
With MISQVLNTLTRTGNNVA | DLTERED | QQYFRLPLS the result was 1.39, 1.33, 0.92, 0.79, 1.24, 1.81.
With TLYGLSMSMSKNKNNVA | EMTTREK | QQYDRLPLM the result was 0.15, 0.60, 0.17, 0.15, -0.01, 0.15.
With TIQMFMDNLYHNRNNVA | DTSTLGS | QSYDRLPLS the result was 1.09, 1.69, 1.34, 0.98, 1.59, 1.88.
With TIGQTLMSGVRNRSNVA | EVSQRLN | QQYDRLPLF the result was 1.70, 1.28, 1.31, 1.27, 0.96, 1.40.
With TLSQSWGMESRHKNNVA | QESTREK | QQYFRLPIS the result was 1.14, 0.75, 2.62, 0.97, 2.44, 1.76.
With QLYAVQDLTSKNSNSVA | EQSTREN | QQYHRLPLS the result was 0.87, 1.11, 0.99, 0.64, 1.11, 1.34.
With MISDMGLHDSRIQNSVA | NNSTREA | QQYDRLPLS the result was nd, nd, nd, nd, nd, nd.
With IVSQLMLWGHLAKNSIA | EAQTRVN | QQYDRLPLF the result was 0.77, 1.11, 0.84, 0.37, 1.27, 1.05.
With KMDLYTQQGNLPRNSIA | AATMRWE | QQYSHIPLM the result was 1.74, 2.09, 2.65, 1.50, 1.35, 1.62.
With KMQQSNLYESRNCNSVA | NASTRMW | QQYHRLPLS the result was 1.34, 0.51, 1.41, 1.96, 1.84, 1.77.
With KLQFLELQESRNKNSVA | SASTRES | QQYHRLPLS the result was 0.02, 0.07, -0.19, -0.17, -0.08, 0.10.
With MISDLTMYGSRNVNSVA | DLSMRGS | QQYHRLPLS the result was 0.39, 0.18, 0.30, 0.06, 0.40, 0.20.
With HMSMLTLGGMRAHNSVA | QMTTREN | QQYDRLPLA the result was 1.08, 0.81, 0.80, 0.88, 1.01, 0.94.
With IVSQLMIWGMHVKNSIA | EAQMRLN | QQYDRLPLF the result was nd, nd, nd, nd, nd, nd.
With KLSQSMDYESRNKNSVA | EASDRLS | QDYHRLPLS the result was 0.25, 0.22, 0.22, 0.22, 0.23, 0.53.
With KLMQVTGYESYLRNSVA | QMSTRAE | QDYHRLPLS the result was 0.39, 0.29, 0.06, 0.32, 0.54, 0.23.
With KIGQMVNYESTHINAVA | QMSTREE | QQYFRLPLS the result was 2.76, 1.18, 0.87, 1.37, 0.59, 1.36.
With MLNQHDEGFKGVKDAIA | NAELREG | QQYGRLPLS the result was 0.67, 0.62, 0.68, 0.62, 0.35, 0.59.
With TISGVMQQMSHSKNNVA | EVSERLD | QQYFRLPLE the result was 0.18, 0.16, 0.13, 0.02, 0.07, 0.12.

For reference, 4 entries of the list once more:

{"CDR-L1": "KLSQTHGMEMVNRNSVA", "CDR-L2": "ELVTRMN", "CDR-L3": "QQYNRLPLS", "log10 Kd, replicates": "0.29, 0.20, 0.16, 0.04, 0.04, 0.62"}
{"CDR-L1": "KLYYDAAQRVQDAENIA", "CDR-L2": "EKTESYQ", "CDR-L3": "QQYHRLPLS", "log10 Kd, replicates": "nd, nd, nd, 2.55, 4.05, 2.61"}
{"CDR-L1": "KLMQVTGYESYLRNSVA", "CDR-L2": "QMSTRAE", "CDR-L3": "QDYHRLPLS", "log10 Kd, replicates": "0.39, 0.29, 0.06, 0.32, 0.54, 0.23"}
{"CDR-L1": "TIGQTLMSGVRNRSNVA", "CDR-L2": "EVSQRLN", "CDR-L3": "QQYDRLPLF", "log10 Kd, replicates": "1.70, 1.28, 1.31, 1.27, 0.96, 1.40"}

Values reported by Li et al. 2023, doi:10.1038/s41467-023-39022-2 (FLAb copy).